Test results from ChEMBL document CHEMBL1126296, “Orally active aldose reductase inhibitors: indazoleacetic, oxopyridazineacetic, and oxopyridopyridazineacetic acid derivatives” (J Med Chem, 1992).

Molecular target: Aldo-keto reductase family 1 member B1 (Homo sapiens, UniProt P15121)
Assay: Inhibitory activity against aldose reductase isolated from human placenta

IC50: 4.8 nM
Compound: O=C(O)Cc1nn(Cc2nc3cc(C(F)(F)F)ccc3s2)c(=O)c2ccccc12 [ZOPOLRESTAT]
